Experimental data published in patent US5731343A (dated 1998).
“Also recorded” adds a separate entry of the source. Where two headings read alike, the source gives them in different places.

Experiments:
[1] = test system: tyrosine phosphorylated proteins (Src family tyrosine kinases); assay: Antiphosphotyrosine immunoblotting of LPS-stimulated macrophages; conditions: 4 hours pretreatment; LPS (10 μg/ml); rat alveolar macrophages
[2] = test system: mRNA for proinflammatory agents (IFNγ, MCP-1, MIP-2, KC, PTPase, GM-CSF, TF, IL-6, IL-1α); conditions: LPS stimulated macrophages; FIG. 16
[3] = test system: COX-1 mRNA; conditions: n=3; 10 μg/100 g body weight per minute, renal artery, 60 minutes; vs vehicle
[4] = test system: IL-6 mRNA; conditions: LPS; FIG. 17J
[5] = test system: KC mRNA; conditions: LPS; FIG. 17F
[6] = test system: IL-1; conditions: for expression of IL-1 protein: LPS (10 μg/ml)
[7] = test system: GM-CSF mRNA; conditions: LPS; FIG. 17I
[8] = test system: 5-lipoxygenase (5-LO); conditions: 5-HETE from exogenous arachidonic acid (30 μM); same doses as COX recovery
[9] = test system: MIP2 mRNA; conditions: LPS; FIG. 17D
[10] = test system: p53/56^lyn; conditions: 4 hours pretreatment; LPS (10 μg/ml)
[11] = test system: PTPase mRNA; conditions: LPS; FIG. 17K
[12] = test system: TNF-α; conditions: LPS-stimulated macrophages; FIGS. 14 and 15
[13] = test system: p60^v-src; conditions: Kwon et al. 1992; cited from earlier work
[14] = test system: COX-1; conditions: LPS; radicicol 50 and 200 ng/ml; 16 hours; listed as radicicol
[15] = test system: TF mRNA; conditions: LPS; FIG. 17H
[16] = test system: COX-1 mRNA; conditions: LPS-treated rat alveolar macrophages
[17] = test system: COX-1; conditions: radicicol 1000 ng/ml
[18] = test system: PGE2; conditions: for PGE2 levels in kidney / PGE2 levels in glomeruli: 10 μg/100 g body weight/minute, renal artery, 60 minutes, mean ± SEM of 3
[19] = test system: IL-1β mRNA; conditions: LPS; FIG. 17E
[20] = test system: p388D1 macrophage-like cells; conditions: LPS-primed p388D1; Glaser et al. 1990; cited from earlier work
[21] = rats with experimental GN, result in words

SMILES: C[C@@H]1C[C@H]2O[C@@H]2/C=C\C=C\C(=O)Cc2c(Cl)c(O)cc(O)c2C(=O)O1 [Radicicol, 5-chloro-6-(7,8-epoxy-10-hydroxy-2-oxo-3,5-undecadienyl)-β-resorcyclic acid μ-lactone]
- levels of tyrosine phosphorylated proteins [1]: suppression of levels of tyrosine phosphorylated proteins in time dependent and dose dependent fashions
- mRNA for many proinflammatory agents [2]: reduced
- levels of COX-1 mRNA in glomeruli [3]: not COX-1 mRNA
- stability of mRNA for IL-6 [4]: affects stability of mRNA
- stability of mRNA for KC [5]: affects stability of mRNA
- expression of IL-1 ([6]; LPS-stimulated macrophages, FIGS. 14 and 15): effectively inhibited
- expression of IL-1 protein ([6]; radicicol 50 ng/ml): effectively reduces IL-1 expression
- expression of IL-1 protein ([6]; radicicol 200 ng/ml): almost completely abolishes IL-1 protein
- stability of mRNA for GM-CSF [7]: affects stability of mRNA
- effect on 5-lipoxygenase activity [8]: did not significantly affect
- stability of mRNA for MIP2 [9]: affects stability of mRNA
- levels of p53/56^lyn [10]: significant reduction levels of p53/56^lyn; also recorded: inhibited tyrosine phosphorylation and levels of p53/56^lyn in a time dependent and dose dependent fashion
- rate of degradation for PTPase mRNA [11]: not significantly affected
- expression of TNF-α [12]: effectively inhibited
- ability to block p60^v-src kinase activity in presence of dithiothreitol [13]: abolished
- expression of COX-1 protein [14]: not affected
- rate of degradation for TF mRNA [15]: not significantly affected
- steady state levels of mRNA for COX-1 [16]: did not appear to affect
- effect on enzyme activity of purified COX-1 [17]: not affected
- PGE2 levels in kidney ([18]; 4 hours, vehicle 1110 ± 29): 1114 ± 140 ng/mg protein
- PGE2 levels in glomeruli ([18]; 4 hours, vehicle 3722 ± 536, p ≤0.05): 2486 ± 150 ng/mg protein
- PGE2 levels in kidney ([18]; 24 hours, vehicle 1185 ± 68): 1097 ± 109 ng/mg protein
- PGE2 levels in glomeruli ([18]; 24 hours, vehicle 2506 ± 32, p ≤0.001): 1170 ± 19 ng/mg protein
- levels of PGE2 in glomeruli [18, 21]: reduction of PGE2 levels
- levels of PGE2 in the whole kidney [18, 21]: not affected
- stability of mRNA for IL-1β [19]: affects stability of mRNA

SMILES: O=c1c(-c2ccc(O)cc2)coc2cc(O)cc(O)c12 [genistein]
- platelet-activating factor-stimulated PGE2 production [20]: inhibit
